Here are results for 1 molecule from patent EP3331365B1, “AGENT FOR FIGHTING FISH PARASITES” (Pharmaq AS, priority 2015, dated 2017).

The test system of the data set is Atlantic salmon (Salmo salar). Particulars: 2ppm for 60 minutes by bath; 12°C seawater.

SMILES strings stand for the structures.

As to `CC(C)c1cc(Oc2ccccc2)cc(C(C)C)c1NC(=S)NC(C)(C)C` [Diafenthiuron, 1-tert-butyl-3-(2,6-diisopropyl-4-phenoxyphenyl)thiourea], the “toxic effect in the treated fish” value was “no toxic effect”.
